Measurements from US11492325B2 (dated 2022).

Experiments:
[1] = Metabolism in human hepatic S9; settings: 0.4 mg protein/incubation; 30 mins, 37° C.
[2] = Metabolism in mouse hepatic S9; settings: 0.4 mg protein/incubation; 30 mins, 37° C.
Human FMO1 = biological target: T1, Human FMO1 (Homo sapiens, UniProt Q01740); settings: 15 μg enzyme/incubation; 30 mins, 37° C.
T1 sequence (Q01740 1-532): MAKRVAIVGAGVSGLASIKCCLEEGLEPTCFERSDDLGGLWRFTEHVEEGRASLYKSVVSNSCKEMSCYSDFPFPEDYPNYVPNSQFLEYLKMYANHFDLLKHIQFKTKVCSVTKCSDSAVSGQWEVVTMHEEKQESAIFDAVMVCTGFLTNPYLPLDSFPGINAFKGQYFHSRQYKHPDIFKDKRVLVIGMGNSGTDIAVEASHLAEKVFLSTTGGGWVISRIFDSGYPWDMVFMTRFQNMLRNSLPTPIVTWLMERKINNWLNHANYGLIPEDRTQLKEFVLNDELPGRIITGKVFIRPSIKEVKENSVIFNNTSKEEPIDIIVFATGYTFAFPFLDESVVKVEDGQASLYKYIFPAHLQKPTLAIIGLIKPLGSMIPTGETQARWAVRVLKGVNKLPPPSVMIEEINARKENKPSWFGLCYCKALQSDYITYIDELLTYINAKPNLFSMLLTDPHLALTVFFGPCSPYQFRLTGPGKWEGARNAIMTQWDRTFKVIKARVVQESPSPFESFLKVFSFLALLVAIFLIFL

Row | Human S-9, nmol metab./incub. [1] [nmol metab./incub.] | Mouse S-9, nmol metab./incub. [2] [nmol metab./incub.] | Human FMO1, nmol metab./incub. (Human FMO1) [nmol metab./incub.] | Compound
1 | 3.9 | 8.0 | 2.4 | Cc1cccc(C)c1OCC(C)N (racemic) [Mexiletine, reference compound]
2 | – | 3.9 | 1.4 | Cl.[2H]C(C)(N)COc1c(C)cccc1C [D-Mexiletine]
